Experiment [1] deals with ZIP-MBPMga2 950–1062 K983 ATTO488 (FRET donor construct) (not stated | baker's yeast) (UniProt P03069). Description: FRET or BRET; detergent solution; titration with the K969^A acceptor, FRET efficiency against the molar fraction of the acceptor (Supplementary Fig. 2c, d).
For experiment [2], the target named is ZIP-MBPMga2 950–1062 (zipped sense-and-response construct, unlabeled wild type) (not stated | baker's yeast) (UniProt P03069). Description: SEC; 100 µg in 100 µl of the purified construct on a Superdex 200 10/300 Increase column (void volume 8.8 ml); construct isolated in OG detergent.

Amino acid sequences for entries named in this document (tags omitted). A change or cut given only in a name is not applied to a line headed by its entry.
UniProt P03069: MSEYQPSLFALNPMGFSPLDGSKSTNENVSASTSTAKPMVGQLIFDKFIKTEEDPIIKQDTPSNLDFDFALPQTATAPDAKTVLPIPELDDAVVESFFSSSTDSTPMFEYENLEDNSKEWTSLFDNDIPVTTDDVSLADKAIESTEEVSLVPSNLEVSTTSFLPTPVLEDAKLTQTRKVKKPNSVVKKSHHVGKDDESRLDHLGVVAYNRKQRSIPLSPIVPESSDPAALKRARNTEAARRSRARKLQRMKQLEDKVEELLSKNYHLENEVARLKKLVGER

For “ZIP-MBPMga2 950–1062 K969 ATTO590 (FRET acceptor construct) (from UniProt P03069 249-281)”, the stoichiometry N in experiment [1] worked out at 2.

With “ZIP-MBPMga2 950–1062 (zipped sense-and-response construct, unlabeled wild type) (from UniProt P03069 249-281)”, the stoichiometry N in experiment [2] amounted to 2.

The record behind these values is paper PMC7005026.
